The MIC is the lowest concentration that inhibits growth of the organism.

This is an account of results in publication PMC4865847, “Putative histidine kinase inhibitors with antibacterial effect against multi-drug resistant clinical isolates identified by in vitro and in silico screens” (Scientific Reports, 2016).

Type in all cases: cell-based
One test concerns Staphylococcus aureus. As to the kind of experiment: Antibacterial susceptibility testing (MIC/MBC), S. aureus. Particulars: DSM20231, read-out: MIC S. aureus DSM 20231. The method, then: (§1) Minimal inhibitory concentrations (MICs) were determined following a standard double-dilution method. […] For S. pneumoniae MICs were determined by adapting the standard double-dilution method to anaerobic conditions and of this microorganism (use of Todd Hewitt Yeast extract with 200 U/mL of catalase and continuous monitoring of growth).

Test [1] has as its system Staphylococcus epidermidis. As to the kind of experiment: Antibacterial susceptibility testing (MIC/MBC), S. epidermidis. Particulars: DSM20044, read-out: MIC S. epidermidis DSM 20044. The method, then:
as §1

Another test deals with Escherichia coli. As to the kind of experiment: Antibacterial susceptibility testing (MIC/MBC), E. coli. The following applies: read-out: MIC E. coli CFT 073. The method, then:
as §1

Each structure is given as a SMILES string. ≈ marks a conversion by molar mass, not a printed value.

On to `Nc1nc(-c2ccc(O)cc2)cs1` [F1.1], for which the MIC was 500 µg/mL (≈ 2600 µM) in the test with Staphylococcus aureus, greater than 500 µg/mL in test [1] and 500 µg/mL (≈ 2600 µM) with Escherichia coli.
